Measured values published in patent CN114685674A.

By UniProt entry, the sequences of proteins in these tests, tags left out. Chains listed by the source or under a name are the forms on record and can include a tag or linker.
UniProt P15692, other isoform, or with tags, fused parts or gaps: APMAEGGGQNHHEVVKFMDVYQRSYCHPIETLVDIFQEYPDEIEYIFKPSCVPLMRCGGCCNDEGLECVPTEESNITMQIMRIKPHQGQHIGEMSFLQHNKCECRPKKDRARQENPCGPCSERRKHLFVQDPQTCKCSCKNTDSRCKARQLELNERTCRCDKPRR

Molecular target: VEGF165 (UniProt P15692)
Assay: cell-based or functional assay

HUVEC细胞增殖抑制 EC50: 0.408 nM
Substance: avastin(贝伐单抗) (antibody)
